The text below walks through data of PMC8196714, “Design, Radiosynthesis and Preliminary Biological Evaluation in Mice of a Brain-Penetrant ^18F-Labelled σ2 Receptor Ligand” (International Journal of Molecular Sciences, 2021).

Sequences of proteins named here, by UniProt entry; tags and fusion partners are left off.
UniProt Q99720, whole entry: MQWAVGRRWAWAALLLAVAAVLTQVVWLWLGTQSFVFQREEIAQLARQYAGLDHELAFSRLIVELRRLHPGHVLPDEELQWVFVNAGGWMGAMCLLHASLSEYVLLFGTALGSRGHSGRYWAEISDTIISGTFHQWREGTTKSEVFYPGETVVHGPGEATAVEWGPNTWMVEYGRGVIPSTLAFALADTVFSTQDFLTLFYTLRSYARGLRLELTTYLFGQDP

This assay has as its target human σ1 receptors (Homo sapiens, UniProt Q99720). Put plainly: σ1 receptor affinity, competitive binding with [3H]-(+)-pentazocine (HZDR Leipzig). The conditions noted are these: determined at HZDR Leipzig. An excerpt:
To decide which of the nine compounds would be suitable for subsequent radiofluorination, we determined the affinity towards the σ1 receptor as the most relevant off-target protein. […] To finally select the best derivative for radiofluorination, we calculated the σ2:σ1 selectivity values and identified RM273 (41) as the most suitable one with a ratio of about 400.
Binding affinity experiments to assess the Ki values of test compounds towards rat σ2 receptors, human σ1 receptors, and rat VAChT were performed according to protocols previously published by our group. The same protocol was used to determine the KD and Bmax values of RM273 towards σ2 receptors expressed in F98 cells by homologous competition analyzing the displacement of [^18F]RM273 by RM273.

For orientation: Ki means the dissociation constant of the complex between target and ligand, obtained from inhibition or displacement. Regarding `Fc1ccc(-n2cc(CCCCN3CCC4(CC3)OCc3ccccc34)c3ccccc32)cc1` [Siramesine, siramesine, reference compound], the affinity corresponds to a Ki of 13 nM.
